The target in assay [1] is T1, human TREM1 on cells (human, UniProt Q9NP99 21-234).
T1 construct: Some reporter cells carry a human TREM1/CD3 zeta fusion instead; also called CHO-huT1; CHO-hT1
As to the kind of experiment: FACS, human neutrophils.

The chains behind the UniProt entries cited, without tags or fusion partners. A line that says so, or that is headed by a name, gives the form on record, which may keep a tag or linker. Residues count along the entry.
UniProt Q9NP99, 21-234: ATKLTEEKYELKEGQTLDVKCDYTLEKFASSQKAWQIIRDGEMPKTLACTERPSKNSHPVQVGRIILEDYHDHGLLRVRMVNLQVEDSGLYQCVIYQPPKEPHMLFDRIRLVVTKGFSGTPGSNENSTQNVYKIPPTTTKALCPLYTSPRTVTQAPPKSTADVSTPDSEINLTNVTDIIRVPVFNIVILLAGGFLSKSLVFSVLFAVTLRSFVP
UniProt Q9NP99, 21-205 limits assumed, form in doubt: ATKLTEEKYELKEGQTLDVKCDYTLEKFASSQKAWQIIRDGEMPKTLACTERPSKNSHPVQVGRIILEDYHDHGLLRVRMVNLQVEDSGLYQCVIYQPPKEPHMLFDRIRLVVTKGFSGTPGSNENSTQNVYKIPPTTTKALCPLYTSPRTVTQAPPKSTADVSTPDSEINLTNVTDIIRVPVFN

The target of assay [2] is human TREM1 (human, UniProt Q9NP99 21-205, limits assumed). Description: IgG, monovalent; method and antigen form not stated.
In assay [3] the target is T2, mouse TREM1 on CHO cells (mouse, UniProt Q9JKE2 21-230).
T2 construct: also called CHO-mT1
T2 sequence: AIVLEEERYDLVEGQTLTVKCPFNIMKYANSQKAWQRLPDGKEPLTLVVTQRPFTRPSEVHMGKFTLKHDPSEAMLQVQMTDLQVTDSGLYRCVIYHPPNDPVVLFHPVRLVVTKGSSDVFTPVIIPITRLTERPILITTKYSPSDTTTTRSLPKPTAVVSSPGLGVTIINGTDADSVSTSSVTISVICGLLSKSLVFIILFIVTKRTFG
As to the kind of experiment: FACS, CHO mouse TREM1. (In general: Flow cytometry measures light scatter and fluorescence of single cells or particles in a stream.)

Assay [4] deals with T1, human TREM1 on cells. Description: FACS ligand blocking on CHO-huTREM1, 10 ug/mL IgG; competitor hPGLYRP1/PGN-BS.
For assay [5], the target named is T1, human TREM1 on cells. Description: FACS, CHO human TREM1.
The target of assay [6] is T3, mouse TREM2 on BWZ cells (mouse, UniProt Q99NH8 19-227).
T3 construct: whole, on cells; also called BWZ Mouse TREM2
T3 sequence (looked up): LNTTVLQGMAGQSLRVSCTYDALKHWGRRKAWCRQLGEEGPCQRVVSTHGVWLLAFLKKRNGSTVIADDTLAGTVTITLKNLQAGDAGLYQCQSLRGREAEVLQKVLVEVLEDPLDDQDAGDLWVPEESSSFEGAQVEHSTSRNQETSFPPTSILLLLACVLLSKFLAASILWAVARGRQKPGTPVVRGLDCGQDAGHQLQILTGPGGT
Description: FACS, BWZ mouse TREM2.

Assay [7] deals with T4, human TREM2 on BWZ cells (human, UniProt Q9NZC2 19-230).
T4 construct: whole, on cells; not tied to the cell line; also called BWZ Human TREM2
T4 sequence (looked up): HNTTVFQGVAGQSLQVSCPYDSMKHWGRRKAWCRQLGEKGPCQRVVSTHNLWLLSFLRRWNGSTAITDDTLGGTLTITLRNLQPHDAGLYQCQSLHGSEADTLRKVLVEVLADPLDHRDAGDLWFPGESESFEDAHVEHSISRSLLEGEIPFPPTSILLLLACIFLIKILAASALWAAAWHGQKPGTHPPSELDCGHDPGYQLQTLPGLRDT
Description: FACS, BWZ human TREM2.

Experimental findings from patent US11472877 (Alector, dated 2022) are described below.

Some results are limits rather than exact numbers.

B1: T1-64 (antibody, IgG1, V domains shown)
VH: QLQLQESGPGLVKPSETLSLTCTVSGGSISSSSYYWGWIRQPPGKGLEWIGSISYSGSTYYNPSLKSRVTISVDTSKNQFSLKLSSVTAADTAVYYCARYYSPYGMDVWGQGTTVTVSS
VL: not shown
notes: huIgG1; also called TI-64; ADI-19140
Consider B1, for which the “FOB Fold Over Background” value was found to be 4.7 fold in assay [1]; 0.7 fold in assay [3]; 410 fold in assay [5]; 1.2 fold in assay [6]; 1 fold in assay [7]. In addition, the Kd in assay [2] amounted to 216 nM. This molecule also displayed a koff in assay [2] of 0.0136 s⁻¹. Also, in assay [2], the on-rate (kon) came to 63100 M⁻¹ s⁻¹. For the same molecule, the “% ligand binding blocked” value in assay [4] was no less than 50%.

B2: T1-68 (antibody, IgG1, V domains shown)
VH: EVQLVQSGAEVKKPGESLKISCKGSGYSFTTYWIGWVRQMPGKGLEWMGIIYPGDSDTRYSPSFQGQVTISADKSISTAYLQWSSLKASDTAMYYCARGSPWDGRLFDIWGQGTMVTVSS
VL: EIVLTQSPATLSLSPGERATLSCRASQSVSSYLAWYQQKPGQAPRLLIYDASNRATGIPARFSGSGSGTDFTLTISSLEPEDFAVYYCQQFDNLPYTFGGGTKVEIK
notes: huIgG1; also called TI-68; ADI-19144
Take B2: the “FOB Fold Over Background” value in assay [1] is 2.2 fold; in assay [3], 1 fold; in assay [5], 411 fold; in assay [6], 1.1 fold; in assay [7], 0.9 fold. In addition, in assay [2], the affinity, expressed as Kd, was 38.2 nM. Besides, the koff in assay [2] worked out at 0.0194 s⁻¹. The molecule further returned a kon in assay [2] of 508000 M⁻¹ s⁻¹. For the same molecule, in assay [4], the “% ligand binding blocked” value is no less than 85%.

B3: T1-44 (antibody, IgG1, V domains shown)
VH: QVQLVQSGAEVKKPGASVKVSCKASGYTFTSYYMHWVRQAPGQGLEWMGVINPSGGSTSYAQKFQGRVTMTRDTSTSTVYMELSSLRSEDTAVYYCAREGSGYDESMDVWGQGTTVTVSS
VL: not shown
notes: huIgG1; also called TI-44; ADI-19119
B3: the “FOB Fold Over Background” value in assay [1] worked out at 3.1 fold; in assay [3] it was 8 fold; in assay [5], 431 fold; in assay [6], 1.2 fold; in assay [7] it was 0.9 fold. In assay [2], this molecule yielded an equilibrium dissociation constant (Kd) of 28 nM. Moreover, the koff in assay [2] is 0.00384 s⁻¹. In addition, the kon in assay [2] amounted to 137000 M⁻¹ s⁻¹. For the same molecule, the “% ligand binding blocked” value in assay [4] is no less than 50%.

B4: T1-48 (antibody, IgG1, V domains shown)
VH: QVQLVQSGAEVKKPGASVKVSCKASGYTFTSYYMHWVRQAPGQGLEWMGVINPGGGSTSYAQKFQGRVTMTRDTSTSTVYMELSSLRSEDTAVYYCAREAGQTSSALDVWGQGTMVTVSS
VL: not shown
notes: huIgG1; also called TI-48; ADI-19121
Regarding B4, the “FOB Fold Over Background” value amounted to 4 fold in assay [1]; 8.4 fold in assay [3]; 291 fold in assay [5]; 1 fold in assay [6]; 1.2 fold in assay [7]. In addition, the Kd in assay [2] was 60 nM. In assay [2], the koff stood at 0.00529 s⁻¹. The kon in assay [2] was 88200 M⁻¹ s⁻¹. Further, in assay [4], the “% ligand binding blocked” value was no less than 50%.

B5: T1-45 (antibody, IgG1, V domains shown)
VH: QVQLVQSGAEVKKPGASVKVSCKASGYTFTSYYMHWVRQAPGQGLEWMGVINPSGGSTSYAQKFQGRVTMTRDTSTSTVYMELSSLRSEDTAVYYCAREGSGYDESMDVWGQGTTVTVSS
VL: not shown
notes: huIgG1; also called TI-45; ADI-19123
B5: the “FOB Fold Over Background” value in assay [1] was determined as 5.4 fold; in assay [3] it was 0.8 fold; in assay [5] it was 446 fold; in assay [6], 1.2 fold; in assay [7], 1 fold. The molecule further showed a dissociation constant (Kd) in assay [2] of 10.7 nM. In assay [2], this molecule showed a koff of 0.000981 s⁻¹. The molecule further had a kon in assay [2] of 92100 M⁻¹ s⁻¹. Besides, the “% ligand binding blocked” value in assay [4] is no less than 50%.

B6: T1-69 (antibody, IgG1, V domains shown)
VH: QVQLVQSGAEVKKPGASVKVSCKASGYTFTSYGISWVRQAPGQGLEWMGWISAYNGNTNYAQKLQGRVTMTTDTSTSTAYMELRSLRSDDTAVYYCARGAGMYDGSPLGMDVWGQGTTVTVSS
VL: DIQMTQSPSSVSASVGDRVTITCRASQGISSWLAWYQQKPGKAPKLLIYAASNLQSGVPSRFSGSGSGTDFTLTISSLQPEDFATYYCQQATAHPPTFGGGTKVEIK
notes: huIgG1; also called TI-69; ADI-19145
Turning to B6, the “FOB Fold Over Background” value in assay [1] came out at 5.5 fold; in assay [3] it was 1.5 fold; in assay [5], 464 fold; in assay [6] it was 0.9 fold; in assay [7], 0.9 fold. Moreover, in assay [2], binding was characterised by a dissociation constant (Kd) of 34.7 nM. This molecule also displayed a koff in assay [2] of 0.00977 s⁻¹. Besides, the kon in assay [2] amounted to 282000 M⁻¹ s⁻¹. Besides, the “% ligand binding blocked” value in assay [4] was no less than 85%.

As usually defined, the Kd is the constant that tells how readily two partners part at equilibrium. A word on the koff: it is a measure of how fast the partners let go of each other. Lower therefore signals slow dissociation. As usually defined, the kon is a measure of how fast the partners come together. The low end stands for slow association, the high end for fast association.
